Test results taken from patent US6342360B1 (priority 1988, dated 2002).

The chains behind the UniProt entries cited, without tags or fusion partners. Residues count along the entry.
UniProt P61169, 1-415 isoform P61169-2: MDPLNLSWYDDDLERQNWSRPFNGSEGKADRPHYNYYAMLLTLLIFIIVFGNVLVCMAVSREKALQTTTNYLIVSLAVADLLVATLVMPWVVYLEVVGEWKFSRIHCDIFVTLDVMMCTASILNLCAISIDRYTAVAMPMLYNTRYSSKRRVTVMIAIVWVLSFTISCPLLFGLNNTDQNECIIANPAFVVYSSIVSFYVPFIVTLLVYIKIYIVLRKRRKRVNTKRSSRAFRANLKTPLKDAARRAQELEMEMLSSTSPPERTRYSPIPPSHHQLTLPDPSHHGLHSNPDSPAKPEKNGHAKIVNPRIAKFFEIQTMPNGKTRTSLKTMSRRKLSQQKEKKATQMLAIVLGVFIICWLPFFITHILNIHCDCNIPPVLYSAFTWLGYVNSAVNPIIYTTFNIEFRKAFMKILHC

Key:
[1] = molecular target: dopamine-D2 receptor (Rattus norvegicus, UniProt P61169); test: Adenylate cyclase activity in membranes from GH4ZR7 cells; assay type: biochemical; set-up: Full-length dopamine-D2 cDNA (17) was excised from λGT10 with Sal I; expressed in transfected cells; settings: 10 μM forskolin, experiments shown in FIG. 17
[2] = molecular target: T1, rat dopamine D-2 receptor (Rattus norvegicus, UniProt P61169); settings: single experiment FIG. 9A
[3] = molecular target: T1, rat dopamine D-2 receptor; settings: percent inhibition of total activity with 10 μM forskolin

- maximal inhibition [1]: 40%
- Hill coefficient [2]: 1.05
- Max (maximal inhibition of adenylate cyclase activity) [3]: 16 ± 3%
Compound: CCCN1CCCC(c2cccc(O)c2)C1 (single isomer, unassigned; (+)) [(+)3-PPP, 3-(3-hydroxyphenyl)-N-n-propylpiperidine]
